# Test results reported in PubChem BioAssay AID624040 (The Scripps Research Institute Molecular Screening Center, 2012).
# Sequences of proteins named here, by UniProt entry; tags and fusion partners are left off.
# UniProt P08912, whole entry, looked up: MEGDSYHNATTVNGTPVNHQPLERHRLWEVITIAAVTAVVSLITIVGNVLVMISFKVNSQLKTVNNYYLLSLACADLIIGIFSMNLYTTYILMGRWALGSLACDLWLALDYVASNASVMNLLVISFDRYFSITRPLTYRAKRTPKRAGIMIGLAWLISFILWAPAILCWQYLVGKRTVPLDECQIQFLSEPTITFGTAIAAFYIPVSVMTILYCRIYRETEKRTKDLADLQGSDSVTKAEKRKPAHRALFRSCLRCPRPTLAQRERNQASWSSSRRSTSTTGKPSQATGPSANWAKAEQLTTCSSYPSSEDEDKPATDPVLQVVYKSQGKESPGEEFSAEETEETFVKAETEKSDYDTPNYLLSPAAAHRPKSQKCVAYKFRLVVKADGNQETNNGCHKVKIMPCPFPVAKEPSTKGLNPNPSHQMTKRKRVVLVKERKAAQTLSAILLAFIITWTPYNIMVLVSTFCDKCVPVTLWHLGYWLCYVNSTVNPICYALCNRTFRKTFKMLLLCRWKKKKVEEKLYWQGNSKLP
# The entries are a selection whose mix differs from that of the whole data set. Calls of active or inactive are those of the source.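 The calls were made as follows: active = inhibition above a per-plate cutoff, the mean of that plate's test compounds plus 3 SD (cut at about 27% in these data); inactive = the rest.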
# Target: Muscarinic acetylcholine receptor M5 (Homo sapiens) (UniProt P08912)
# Assay: human M5 muscarinic receptor antagonists, primary screen, CHO cells, Fluo-8 calcium fluorescence (AID 624040);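 also: 0% = acetylcholine EC80 with DMSO and 100% = DMSO without agonist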
# Conditions: CHO-hM5 cells, ACh EC80, at 3 µM, active compounds read high
row,Structure (SMILES),inhibition
1,CC(C)=N/N=C(\N)N[N+](=O)[O-],inactive: -5.39%
2,CC(C)c1nc(Nc2ccccc2)n(P(=O)(N(C)C)N(C)C)n1,inactive: 0.36%
3,CN(C)C(=O)OCCc1n(C)cc[n+]1C,inactive: 3.86%
4,O=P1(N(CCCl)CCCl)OCCCS1 (stereo not given),inactive: -11%
5,O=C(Nc1cc([As](=O)(O)O)ccc1O)c1ccccc1,inactive: -1.76%
6,O=[N+]([O-])c1ncn(CCn2ncnc2[N+](=O)[O-])n1,inactive: -8.94%
7,CC(C)(C)C(=O)NC(Sc1ccncn1)C(Cl)(Cl)Cl (stereo not given),inactive: 0.8%
8,C/C=C1/C[C@@H](C)[C@](O)(CO)C(=O)OCC2=CCN3CC[C@@H](OC1=O)[C@@H]23,inactive: -0.19%
9,O=C(O)CNc1ccc([As](=O)(O)O)cc1,inactive: 3.51%
10,O=[N+]([O-])c1cccc(NC2=NCC(CBr)S2)c1 (stereo not given),inactive: 14.1%
11,COC(=O)C1(C)COP(=O)(Nc2ccccc2)OC1 (stereo not given),inactive: 3.7%
12,CN(C)P(=O)(N(C)C)n1c(Nc2ccccc2)nnc1-c1ccccc1,inactive: 4.22%
13,O=P(Nc1nc2ccc(Cl)cc2s1)(c1ccccc1)c1ccccc1,inactive: 9.87%
14,O=C(O)c1ccccc1[As](=O)(O)O,inactive: -0.62%
15,CC(=O)Nc1ccc([As](=O)(O)O)cc1,inactive: -4.71%
16,CC(=O)O[C@]1(C)C(=O)OC/C2=C/CN(C)CCC(OC(=O)[C@@](O)(C(C)O)C[C@H]1C)C2=O (stereo not given in full),inactive: 10.4%
17,CCCC1OP(N)(=O)OCC1CC (stereo not given),inactive: 4.02%
18,CCOP(=O)(Nc1ccccc1)OCC,inactive: -3.56%
19,Cc1cc(SC(NC(=O)c2ccc(F)cc2)C(Cl)(Cl)Cl)ncn1 (stereo not given),inactive: -4.78%
20,CN(C(=O)Cc1ccc(Cl)c(Cl)c1)[C@H]1CCCC[C@@H]1N1CCCC1,inactive: 0.42%

row,Structure (SMILES),inhibition
1,Cc1ccc(NP(=O)(Oc2ccccc2F)Oc2ccccc2F)nc1,inactive: 17.5%
2,Nc1cccc2ccc([As](=O)(O)O)cc12,inactive: 10.2%
3,CCN(N=Nc1nonc1N)c1nonc1N,inactive: 3.34%
4,CN(C(=O)Cc1ccc(Cl)c(Cl)c1)[C@H]1CCCC[C@H]1N1CCCC1,inactive: 2.4%
5,Cc1ccc(N/C(=N/P(=O)(N2CCOCC2)N2CCOCC2)N2CCOCC2)cc1,inactive: 4.6%
6,NC(=O)c1cc([N+](=O)[O-])cc([N+](=O)[O-])c1N,inactive: -0.22%
7,Clc1ccc(Cl)c(NC2=NCC(CBr)S2)c1 (stereo not given),inactive: -5.5%
8,CN1CCCC(OC(=O)C(c2ccccc2)c2ccccc2)C1 (stereo not given),active: 55.6%
9,CC(C)[C@H]1C(=O)O[C@@H]2CCN3CC=C(COC(=O)[C@](C)(O)[C@]1(C)O)[C@H]23,inactive: 4.84%
10,COc1ccccc1OP(=O)(Nc1ccc(C)cn1)Oc1ccccc1OC,inactive: -4.84%
11,Cc1ccc(OP(=O)(Nc2nccs2)Oc2ccc(C)cc2)cc1,inactive: 1.61%
12,Oc1ccccc1CNc1ccccn1,inactive: -2.07%
13,O=C(NC(Sc1ccncn1)C(Cl)(Cl)Cl)c1ccccc1 (stereo not given),inactive: -6.89%
14,CC(C)CC(=O)NC(Sc1ccc(Cl)cc1)C(Cl)(Cl)Cl (stereo not given),inactive: 0.07%
15,Nc1cc(N)c2nonc2c1[N+](=O)[O-],inactive: 12.5%
16,O=[N+]([O-])C1C(O)C(O)C([N+](=O)[O-])C(O)C1O (stereo not given),inactive: 0.8%
17,O=P1(Nc2nc3ccc(Cl)cc3s2)COc2ccccc2O1 (stereo not given),inactive: 1.06%
18,CCOc1ccc(C2=NCC(CBr)S2)cc1 (stereo not given),inactive: -3.35%
19,CC(C)(C)C(=O)NC(Sc1ccccc1)C(Cl)(Cl)Cl (stereo not given),inactive: -5.12%
20,CCc1cc(O)c([N+](=O)[O-])c(C)c1[N+](=O)[O-],inactive: -1.56%
